From published antibiotic growth screens (doi:10.1038/s41589-023-01349-8)
The other results are listed elsewhere or left out.

Test system: A. baumannii ATCC 17978
Assay: relative growth (fraction of control); higher = less inhibition
Conditions: 50 µM

Row | SMILES | relative growth
1 | CC(C)(C)OC(=O)CC[C@]12N=C(c3ccc(OCCCO)cc3)O[C@H]1c1ccccc1CN(C(=O)c1ccccc1)C2=O | 1.08
2 | CC(C)(C)CC(C)(C)c1ccc(O)c(Cc2ccc(Cl)cc2Cl)c1 | 1.62
3 | O=C(O)CCc1n[nH]c(=S)[nH]c1=O | 0.994
4 | CN1CCN(c2c(F)cc3c(=O)c(C(=O)O)cn4c3c2OCN4C)CC1 | 0.145
5 | CCN1CCN(C(=O)NC(C(=O)N[C@@H]2C(=O)N3[C@@H]2SC(C)(C)[C@@H]3C(=O)[O-])c2ccccc2)C(=O)C1=O.[Na+] (some centres undefined) | 0.149
6 | CC/N=c1\sc(C(=O)OC)cc(=O)n1CC | 0.968
7 | COc1ccc(S(=O)(=O)Nc2ccc3c(c2)[C@H]2C[C@H](CC(=O)NCC4CC4)O[C@H](CO)[C@H]2O3)cc1 | 1.04
8 | CCCNC(=O)N1C[C@H](O)COC[C@H]2O[C@H](CC(=O)N3CCN(C)CC3)CC[C@@H]21 | 1.03
9 | CCNC(=O)C[C@H]1C=C[C@@H](NC(=O)C2CC2)[C@@H](CO)O1 | 1.08
10 | CCOC(=O)c1ccc(N)cc1 | 0.865
11 | O=C(C[C@@H]1CC[C@@H]2[C@H](COC[C@@H](O)CN2C(=O)Nc2ccc(Cl)c(Cl)c2)O1)NCc1ccncc1 | 0.92
12 | O=C1N[C@@H](Cc2c[nH]c3ccccc23)COC(=O)[C@H](Cc2ccc(F)cc2)CCC=CC[C@H]1CC(=O)N(CCO)Cc1ccccc1 | 1.25
13 | COc1ccc(S(=O)(=O)N(C)C[C@@H]2Oc3c(NC(=O)Nc4cccc5ccccc45)cccc3C(=O)N([C@@H](C)CO)C[C@H]2C)cc1Cl | 0.932
14 | O=C(C[C@@H]1C=C[C@H](NC(=O)c2ccc(F)cc2)[C@@H](CO)O1)NCc1ccncn1 | 1.04
15 | COc1c(C)cnc2c1c(=O)n(CC(N)=O)c(=O)n2C | 0.835
16 | CC(C)CC#Cc1ccc2c(c1)O[C@H](CN(C)C(=O)c1cnccn1)[C@H](C)CN([C@@H](C)CO)S2(=O)=O | 0.905
17 | COc1ccccc1OCC(O)CN1CCN(CC(=O)Nc2c(C)cccc2C)CC1.Cl.Cl (centres undefined) | 1.14
18 | Cc1cc(C)n(-c2n[nH]c(=S)n2N)n1 | 0.94
19 | C[C@@H]1CN([C@H](C)CO)S(=O)(=O)c2ccc(C#CCN(C)C)cc2O[C@H]1CN(C)C | 0.837
20 | O=C(C[C@H]1CC[C@@H]2[C@H](COC[C@@H](O)CN2S(=O)(=O)c2ccc(Cl)cc2)O1)N[C@@H]1CCN(Cc2ccccc2)C1 | 1.03
21 | N=C(N)Nc1nc2ccccc2[nH]1 | 0.969
22 | COc1cccc(CNc2nn[nH]n2)c1OC | 0.947
23 | O=c1/c(=C\c2ccc(F)cc2)sc2n1CCN=2 | 0.933
24 | COC(=O)CCC(C)C1CCC2C3CC[C@@H]4C[C@H](O)CC[C@]4(C)C3C[C@H](O)[C@]12C (some centres undefined) | 0.919
25 | CC(C)CC#Cc1cnc2c(c1)C(=O)N([C@@H](C)CO)C[C@@H](C)[C@H](CN(C)C(=O)CN1CCOCC1)O2 | 1.05
26 | O=C(C[C@@H]1CC[C@@H]2[C@H](COC[C@@H](O)CN2C(=O)Nc2ccc3c(c2)OCO3)O1)N1CCN(c2ccccc2)CC1 | 1.1
27 | Cc1ccc(S(=O)(=O)NC(=O)NN2CCCCCC2)cc1 | 0.977

Row | SMILES | relative growth
28 | CCOC(=O)/C(C#N)=C1/C=CN(C)C=N1 | 1.14
29 | O=C(C[C@H]1CC[C@H]2[C@@H](COC[C@@H](O)CN2C(=O)Nc2ccc(Cl)cc2)O1)NC1Cc2ccccc2C1 | 0.998
30 | O=c1[nH]c(=O)n([C@H]2C[C@H](O)[C@@H](CO)O2)cc1Br | 1.11
31 | CN(C)Cc1cn(CC[C@H]2CC[C@@H](NS(=O)(=O)c3ccccc3)[C@H](CO)O2)nn1 | 0.968
32 | O=c1[nH]c2ccccc2c(O)c1[I+]c1ccccc1 | 0.95
33 | C[C@@H]1CN([C@@H](C)CO)S(=O)(=O)c2ccc(/C=C/c3ccccc3)cc2O[C@@H]1CN(C)C(=O)CN1CCOCC1 | 1.1
34 | C[C@H](CO)N1C[C@H](C)[C@@H](CN(C)C(=O)c2cnccn2)Oc2ncc(C#CCN(C)C)cc2C1=O | 1.13
35 | CC(=O)CC/C=C(\C)CC/C=C(\C)CC/C=C(\C)CCC=C(C)C | 1.29
36 | Clc1ccc(CSC(Cn2ccnc2)c2ccc(Cl)cc2Cl)cc1.O=[N+]([O-])O (centres undefined) | 1.26
37 | CCNC(=O)C[C@@H]1C=C[C@H](NC(=O)C2CC2)[C@H](CO)O1 | 0.895
38 | COc1ccc(NC(=O)N2C[C@@H](O)COC[C@@H]3O[C@H](CC(=O)NCc4ccccc4OC)CC[C@H]32)cc1 | 1.04
39 | COc1ccccc1C#Cc1ccc2c(c1)O[C@@H](CN(C)Cc1ccncc1)[C@@H](C)CN([C@H](C)CO)S2(=O)=O | 1.07
40 | COc1cccc(OC)c1O | 1.01
41 | CO[C@H](CN(C)S(=O)(=O)c1cccc(Cl)c1)[C@H](C)CN([C@H](C)CO)S(=O)(=O)c1ccc(Cl)cc1 | 0.901
42 | O=C(C[C@H]1C[C@@H]2c3cc(NC(=O)C4CCOCC4)ccc3O[C@@H]2[C@@H](CO)O1)NCc1ccc2c(c1)OCO2 | 1.15
43 | CNC(=O)[C@H]1O[C@H](n2cnc3c(NCc4cccc(I)c4)nc(Cl)nc32)[C@@H](O)[C@@H]1O | 1
44 | C[C@@H](NC(=O)C[C@H]1C=C[C@@H](NC(=O)CN2CCOCC2)[C@@H](CO)O1)c1ccccc1 | 0.981
45 | O=C(O)/C=C/C(=O)NC1CC1 | 1.02
46 | NC(=O)N[C@@H]1CC(=O)N(c2ccccc2)C1 | 0.933
47 | O=C(C[C@H]1CC[C@@H]2[C@H](COC[C@H](O)CN2C(=O)c2ccccc2)O1)N1CCOCC1 | 1.02
48 | O=C(Nc1cc(C(=O)Nc2ccc(S(=O)(=O)O)cc2S(=O)(=O)O)cc(C(=O)Nc2ccc(S(=O)(=O)O)cc2S(=O)(=O)O)c1)Nc1cc(C(=O)Nc2ccc(S(=O)(=O)O)cc2S(=O)(=O)O)cc(C(=O)Nc2ccc(S(=O)(=O)O)cc2S(=O)(=O)O)c1 | 0.965
49 | Nc1ccc2cc3ccc(N)cc3nc2c1.O=S(=O)(O)O | 0.623
50 | COc1cc2nc(N3CCN(C(=O)C4COc5ccccc5O4)CC3)nc(N)c2cc1OC.CS(=O)(=O)O (centres undefined) | 1.04
51 | CC(C)N1C(=O)[C@@H]2[C@@H](C1=O)[C@@H]1C=C[C@@H]2O1 | 0.93
52 | COCCCNc1ncnc(N)c1[N+](=O)[O-] | 1.03
53 | COc1cc(O)c2c(=O)c(O)c(-c3ccccc3)oc2c1 | 1.06
54 | CC/C(=C(/CC)c1ccc(O)cc1)c1ccc(O)cc1 | 0.741

Row | SMILES | relative growth
55 | C1CNCCN1.C[C@]12CCC3c4ccc(OS(=O)(=O)O)cc4CCC3C1CCC2=O (some centres undefined) | 1.1
56 | COC(=O)C1=CC(CCCO)=C[C@@H](c2ccc(CN3CCCC3)cc2)N(Cc2sc3ccccc3c2Cl)C=C1C(=O)OC | 0.974
57 | CCNC(=O)C[C@@H]1CC[C@@H]2[C@H](COC[C@@H](O)CN2C(=O)Nc2c(C)noc2C)O1 | 0.919
58 | C#CCN([C@H](/C=C/C1CC1)[C@@H](O)CCn1cc(CCC(=O)NO)nn1)[C@@H](Cc1ccccc1)C(=O)OC | 1.07
59 | O=C1[C@@H]2[C@H](O)CS[C@@H]2C(=O)N1c1ccccc1 | 1.07
60 | COc1ccc(C#Cc2cnc3c(c2)C(=O)N([C@@H](C)CO)C[C@@H](C)[C@H](CN(C)C(=O)CN(C)C)O3)cc1 | 1.01
61 | C[C@@H](O)[C@H]1C(=O)N2C(C(=O)O)=C(SC3CN[C@H](C(=O)N(C)C)C3)[C@H](C)[C@H]12 (some centres undefined) | 0.171
62 | CCCCCCCCCCCCCCCCOc1nc2ccc(C)cc2c(=O)o1 | 0.959
63 | CCC(=O)Nc1ccc2c(c1)C(=O)N(C)C[C@@H](OC)[C@@H](C)CN(C(=O)CN1CCOCC1)[C@H](C)CO2 | 1.02
64 | Cc1sc(Nc2ccccc2)nc1-c1ccc(Cl)cc1 | 1.28
65 | CC(=O)/N=c1\sc(S(N)(=O)=O)nn1C | 0.903
66 | C/C=C1\[C@H](O[C@@H]2O[C@H](CO)[C@@H](O)[C@H](O)[C@H]2O)OC=C(C(=O)OC)[C@H]1CC(=O)OC[C@H]1O[C@@H](OCCc2ccc(O)cc2)[C@H](O)[C@@H](O)[C@@H]1OC(=O)C[C@@H]1C(C(=O)OC)=CO[C@@H](O[C@@H]2O[C@H](CO)[C@@H](O)[C@H](O)[C@H]2O)/C1=C\C | 0.992
67 | COc1ccc([Si](C)(C)[C@H]2[C@H](CC(=O)N3Cc4ccccc4C[C@H]3CO)O[C@@]3(C(=O)N(Cc4cccc(N5C(=O)c6cccc7cccc5c67)c4)c4ccccc43)[C@@H]2C)cc1 | 1.04
68 | O=C(C[C@@H]1CC[C@H]2[C@@H](COC[C@@H](O)CN2S(=O)(=O)c2ccccc2F)O1)NCc1ccccc1F | 1.07
69 | CC(=O)NCCc1ccc(O)c(-c2c(O)c(O)c3c(c2O)C(=O)c2c(cc(O)c(C(=O)O)c2C(=O)O)C3=O)c1 | 1.11
70 | Cc1noc(C)c1NC(=O)N[C@H]1C=C[C@@H](CC(=O)N2CCN(C)CC2)O[C@@H]1CO | 0.956
71 | COCC#Cc1ccc2c(c1)O[C@@H](CN(C)C(=O)COC)[C@@H](C)CN([C@H](C)CO)S2(=O)=O | 0.837
72 | O=C(C[C@@H]1CC[C@@H]2[C@H](COC[C@H](O)CN2C(=O)c2ccncc2)O1)NC1CCC1 | 1.06
73 | C[C@]12C=CC(=O)C=C1CCC1C3C[C@@H](O)[C@](O)(C(=O)CO)[C@@]3(C)C[C@H](O)[C@@]12F (some centres undefined) | 0.975
74 | COc1ccc(S(=O)(=O)N2C[C@@H](O)COC[C@H]3O[C@@H](CC(=O)NCCN4CCCCC4)CC[C@@H]32)cc1 | 1.04
75 | O=C(C[C@@H]1CC[C@H](NC(=O)c2ccc(F)cc2)[C@H](CO)O1)NCc1ccncn1 | 0.958
76 | CC(Oc1c(Cl)cccc1Cl)C1=NCCN1.Cl (centres undefined) | 0.871
77 | CC[C@@H]1C(=O)OC[C@@H]1Cc1cncn1C.O=[N+]([O-])O | 0.983
78 | C[C@@H](O)[C@H]1C(=O)N2C(C(=O)[O-])=C(SC3Cn4cnc[n+]4C3)[C@H](C)[C@H]12 (some centres undefined) | 0.561
79 | CC(C)CC#Cc1ccc2c(c1)O[C@@H](CN(C)S(=O)(=O)c1cccc(F)c1)[C@H](C)CN([C@@H](C)CO)S2(=O)=O | 1.31
